In PubChem BioAssay AID1511 (Johns Hopkins Ion Channel Center, 2009):
This is a selection; strong and weak results do not stand in their true shares. Calls of active or inactive are those of the source.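 How the source made its calls: active means activation above the mean of controls blocked by dofetilide plus 5 SD; inactive means the rest.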

Chains of the proteins cited; added tags and fusions are not shown. Lines headed by an entry give the natural chain unless they say otherwise; changes in a name come on top.
UniProt Q12809: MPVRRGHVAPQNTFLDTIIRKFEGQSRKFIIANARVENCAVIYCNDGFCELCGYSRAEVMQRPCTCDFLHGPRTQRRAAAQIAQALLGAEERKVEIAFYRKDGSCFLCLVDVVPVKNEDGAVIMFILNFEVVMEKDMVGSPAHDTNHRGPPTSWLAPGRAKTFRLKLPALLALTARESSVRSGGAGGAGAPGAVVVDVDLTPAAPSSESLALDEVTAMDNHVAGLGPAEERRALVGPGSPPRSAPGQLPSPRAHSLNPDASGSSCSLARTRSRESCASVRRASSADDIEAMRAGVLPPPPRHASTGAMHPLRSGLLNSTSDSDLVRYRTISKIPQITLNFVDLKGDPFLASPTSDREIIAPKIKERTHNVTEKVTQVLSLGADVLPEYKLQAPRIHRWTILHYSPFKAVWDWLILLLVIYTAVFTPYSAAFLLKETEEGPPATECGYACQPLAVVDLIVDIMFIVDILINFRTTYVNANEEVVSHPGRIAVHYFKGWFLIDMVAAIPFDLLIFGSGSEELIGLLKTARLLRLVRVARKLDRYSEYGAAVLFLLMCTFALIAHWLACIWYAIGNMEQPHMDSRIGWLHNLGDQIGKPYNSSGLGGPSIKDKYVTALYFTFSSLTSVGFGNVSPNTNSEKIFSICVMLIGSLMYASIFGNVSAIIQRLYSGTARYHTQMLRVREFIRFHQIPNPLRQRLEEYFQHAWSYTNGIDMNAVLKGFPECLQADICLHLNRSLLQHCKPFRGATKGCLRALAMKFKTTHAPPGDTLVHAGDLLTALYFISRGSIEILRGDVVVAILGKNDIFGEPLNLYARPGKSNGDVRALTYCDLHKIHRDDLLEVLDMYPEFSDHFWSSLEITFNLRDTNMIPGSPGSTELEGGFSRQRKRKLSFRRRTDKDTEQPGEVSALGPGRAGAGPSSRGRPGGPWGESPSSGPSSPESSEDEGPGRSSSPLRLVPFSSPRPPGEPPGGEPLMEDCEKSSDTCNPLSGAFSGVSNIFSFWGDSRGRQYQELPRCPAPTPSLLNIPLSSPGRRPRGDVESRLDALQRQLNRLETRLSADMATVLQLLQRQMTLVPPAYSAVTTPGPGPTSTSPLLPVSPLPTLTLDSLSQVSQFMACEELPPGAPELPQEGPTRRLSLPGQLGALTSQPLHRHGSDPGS

target: Voltage-gated inwardly rectifying potassium channel KCNH2 (Homo sapiens) (UniProt Q12809); test: PubChem AID 1511; details: CHO-hERG, FluxOR thallium flux, dofetilide IC70 present; at 10 µM; stronger effect = higher value;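 further: thallium influx through hERG after potassium depolarization seen as dye fluorescence rise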

`CC(C)/C=N\N=C(\N)N[N+](=O)[O-]` was tested. Which activation (rescue from dofetilide block), less the hit threshold did it give?
The activation (rescue from dofetilide block), less the hit threshold was inactive: -1.37%.

Which activation (rescue from dofetilide block), less the hit threshold does the source give for `O=[As](O)(c1ccccc1Br)c1ccccc1Br` here?
Its activation (rescue from dofetilide block), less the hit threshold is inactive: -6.93%.

`CC1(CBr)Cn2c(nc3ccccc3c2=O)S1` (stereo unspecified) was tested. Which activation (rescue from dofetilide block), less the hit threshold did it give?
The activation (rescue from dofetilide block), less the hit threshold was inactive: -4.5%.

Which activation (rescue from dofetilide block), less the hit threshold does the source give for `COc1ccccc1CNC(=O)COC(=O)C(O)(c1ccccc1)c1ccccc1` here?
The activation (rescue from dofetilide block), less the hit threshold was inactive: -13.8%.

With `Clc1n[nH]nc1-c1nn[nH][15n]1` as the compound, how does the activation (rescue from dofetilide block), less the hit threshold read?
The activation (rescue from dofetilide block), less the hit threshold was inactive: -4.76%.

With `CC(C)(C)C(=O)NC(Sc1ncccn1)C(Cl)(Cl)Cl` (stereo unspecified) as the compound, how does the activation (rescue from dofetilide block), less the hit threshold read?
The activation (rescue from dofetilide block), less the hit threshold was inactive: -3.47%.

With `CCC1=CC2Cc3nc4ccc(Cl)cc4c(N)c3C(C1)C2` (stereo unspecified) as the compound, how does the activation (rescue from dofetilide block), less the hit threshold read?
The activation (rescue from dofetilide block), less the hit threshold was inactive: -18.1%.

For `O=P1(Nc2ccccn2)COc2ccccc2OC1`, which activation (rescue from dofetilide block), less the hit threshold is on record?
Its activation (rescue from dofetilide block), less the hit threshold is inactive: -12%.

`CCOP(=O)(NC(=NC(C)c1ccccc1)NC(C)c1ccccc1)OCC` (stereo unspecified) was tested. Which activation (rescue from dofetilide block), less the hit threshold did it give?
The activation (rescue from dofetilide block), less the hit threshold was inactive: -0.58%.

Which activation (rescue from dofetilide block), less the hit threshold does the source give for `CCOP(=O)(Nc1ccc(C)cn1)OCC` here?
Its activation (rescue from dofetilide block), less the hit threshold is inactive: -8.15%.

Which activation (rescue from dofetilide block), less the hit threshold does the source give for `CN(CCCl)Cc1cc(Cl)c(NC2=NCCN2)c(Cl)c1` here?
The activation (rescue from dofetilide block), less the hit threshold was inactive: -4.53%.

How did the activation (rescue from dofetilide block), less the hit threshold turn out when `Nc1cccc([As](=O)(O)c2ccccc2)c1` was run?
The activation (rescue from dofetilide block), less the hit threshold was inactive: -1.96%.

For `O=[As](O)(c1cccs1)c1cccs1`, which activation (rescue from dofetilide block), less the hit threshold is on record?
The activation (rescue from dofetilide block), less the hit threshold was inactive: -3.73%.

With `Cc1ccc(OCC(=O)OC2CN3CCC2CC3)cc1` (stereo unspecified) as the compound, how does the activation (rescue from dofetilide block), less the hit threshold read?
The activation (rescue from dofetilide block), less the hit threshold was inactive: -3.81%.

Which activation (rescue from dofetilide block), less the hit threshold does the source give for `O=P1(Nc2ccc(Br)cn2)COc2ccccc2OC1` here?
The activation (rescue from dofetilide block), less the hit threshold was inactive: -9.39%.

For `O=P1(Nc2ncccn2)COc2ccccc2OC1`, which activation (rescue from dofetilide block), less the hit threshold is on record?
Its activation (rescue from dofetilide block), less the hit threshold is inactive: -7.3%.

With `CN(C)C1(CNC(=O)c2ccc(S(C)(=O)=O)cc2)CCCCC1` as the compound, how does the activation (rescue from dofetilide block), less the hit threshold read?
Its activation (rescue from dofetilide block), less the hit threshold is inactive: -3.1%.

For `O=C(/C=C/c1ccccc1)OC1CN2CCC1CC2` (stereo unspecified), which activation (rescue from dofetilide block), less the hit threshold is on record?
Its activation (rescue from dofetilide block), less the hit threshold is inactive: -5.01%.

`Cc1nn(-c2ccccc2)c2c1P(=O)(N1CCOCC1)N(C)C(c1ccccc1)=N2` (stereo unspecified) was tested. Which activation (rescue from dofetilide block), less the hit threshold did it give?
The activation (rescue from dofetilide block), less the hit threshold was inactive: -0.15%.

With `Cc1ccc(C(=O)OC2CN3CCC2CC3)cc1` (stereo unspecified) as the compound, how does the activation (rescue from dofetilide block), less the hit threshold read?
The activation (rescue from dofetilide block), less the hit threshold was inactive: -2.35%.

`CC1CCC(C(C)C)C(OP(=O)(Nc2ccccn2)c2ccccc2)C1` (stereo unspecified) was tested. Which activation (rescue from dofetilide block), less the hit threshold did it give?
Its activation (rescue from dofetilide block), less the hit threshold is inactive: -22.3%.
